Earlier results in patent US9782454B2 (LONGEVITY BIOTECH, INC., priority 2010, dated 2017).

Target: T1, CRF1 (Homo sapiens, UniProt P34998)
T1 sequence (P34998 24-415): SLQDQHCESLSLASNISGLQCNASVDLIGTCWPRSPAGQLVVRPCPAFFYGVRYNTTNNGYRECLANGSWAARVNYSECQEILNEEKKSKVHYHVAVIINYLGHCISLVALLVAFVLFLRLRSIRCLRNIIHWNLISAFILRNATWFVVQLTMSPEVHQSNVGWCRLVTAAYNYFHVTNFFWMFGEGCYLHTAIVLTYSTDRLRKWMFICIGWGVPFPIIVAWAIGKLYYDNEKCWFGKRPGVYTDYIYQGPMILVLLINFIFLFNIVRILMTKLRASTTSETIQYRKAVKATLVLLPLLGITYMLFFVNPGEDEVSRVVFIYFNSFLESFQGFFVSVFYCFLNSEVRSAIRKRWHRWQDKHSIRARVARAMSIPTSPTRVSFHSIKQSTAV
Settings: cited from earlier work

Astressin
Ki: 2 nM
